PubChem BioAssay AID504894 (National Center for Advancing Translational Sciences (NCATS), 2011)
The list shows a part of the results, in another mix than the full data. Some of these compounds have results that are not shown, active ones among them. Active and inactive are the calls of the source. Calls come from the whole dose curve; as a rule, active = well fitted activation curve with a large enough effect; inconclusive = small, poorly fitted or top-dose-only effect, or another doubt; inactive = no such curve, though single readings can be large or run the other way.

Assay: Activators of T cell receptors: qHTS campaign; note: % of control where 0% means no effect
Conditions: primary human leukocytes, anti-CD3, IL-2 HTRF, 48 h; at 9.22 µM unless noted
From the text: Normally activation of naive T cells requires two signals. 1. A signal through the T cell receptor (TCR) which provides antigen specificity to the response. 2. Signals through co-stimulatory molecules, which are necessary for proliferation, survival and cytokine production. In the absence of co-stimulatory signals T cells are not effectively activated, and may even be rendered anergic or unresponsive to subsequent signaling. This lack of costimulation has been shown in multiple model systems to be a major factor in the limited strength and effectiveness of anti-tumor T cell responses. The goal of this project is to identify small molecule compounds that will stimulate T cell activation in the presence of TCR signaling but in the absence of co-stimulatory signals, thereby allowing activation of naive T cells in the absence of co-stimulation. Identification of such compounds would have clear experimental and clinical applications in instances where desirable antigen-specific immune responses are not generated due to a lack of co-stimulation, for example in the generation of anti-tumor responses. In collaboration between the National Cancer Institute and NIH Chemical Genomics Center, a high-throughput amenable screen was developed to discover small molecules that co-stimulate and activate human T cell receptors. The screen will be carried out using a novel homogeneous time resolved fluorescence energy transfer (HTRF) assay to measure production of the cytokine IL-2 by activated T cells and will be tested against the NIH Molecular Libraries Small Molecule Repository (MLSMR). NIH Chemical Genomics Center [NCGC] NIH Molecular Libraries Probe Centers Network [MLPCN] MLPCN Grant: MH090820-01 Assay Submitter (PI): Richard Hodes, National Cancer Institute, NIH
Primary human leukocytes are incubated with a-CD3 beads and compounds for 48 hr. The amount of secreted IL-2 is then assayed with a HTRF IL-2 kit. The presence of IL-2 cytokine captures the detection reagents and brings the a-IL-2-K and a-IL-2-d2 into close proximity. Upon excitation with 320nm light, the europium cryptate is capable of transferring energy to acceptor molecules within close proximity, resulting in acceptor molecule emission at 665nm.

SMILES | activation of IL-2 secretion
COc1ccc(Br)c(C(=O)NCC2(N3CCCCC3)CCCCC2)c1 | inactive: -1.95%
CN(C)c1cccc(C(=O)NCC2(N(C)C)CCCCC2)c1 | inactive: 0.125%
O=C(OCCN1CCCC1)C(O)(c1ccccc1)c1ccccc1 | inactive: -7%
CC(C)Oc1ccc(C(=O)NCC2(N(C)C)CCCCC2)cc1 | inactive: 2.44%
O=C(OC1CN2CCC1CC2)C(CO)(c1ccccc1)c1ccccc1 (stereo not given) | inactive: -4.05%
COc1ccc(Cl)cc1C(=O)NCC1(N(C)C)CCCCC1 | inactive: -7.16%
COc1cccc(C(=O)NCC2(N3CCCCC3)CCCCC2)c1 | inactive: 1.42%
O=C(NCC1(N2CCCCC2)CCCCC1)c1cccc(Cl)c1 | inactive: -1.19%
CN(C)C1(CNC(=O)c2ccc(Br)cc2)CCCCC1 | inactive: 2.65%
COc1cc(C(=O)NCC2(N(C)C)CCCCC2)c([N+](=O)[O-])cc1OC | inactive: -2.79%
O=C(NCC1(N2CCCCC2)CCCCC1)c1cc(F)c(F)cc1Cl | inactive: 3.3%
C=CCN1CCN(CCOC(=O)C(O)(c2ccccc2)c2ccccc2)CC1 | inactive: 7.72%
O=C(NCC1(N2CCCCC2)CCCCC1)c1cccc(Br)c1 | inactive: -3.85%
CCN1CCCC(OC(=O)C2(O)c3ccccc3C=Cc3ccccc32)C1 (stereo not given) | inactive: -4.57% [at 46.1 µM]
Cc1cc(C(=O)NCC2(N3CCCCC3)CCCCC2)ccc1[N+](=O)[O-] | inactive: 1.23%
COc1ccc(C(=O)NCC2(N(C)C)CCCCC2)cc1 | inactive: -4.04%
CN(C)c1ccc(C(=O)NCC2(N(C)C)CCCCC2)cc1 | inactive: 0.724%
CN(C)C1CCCC1OC(=O)C(O)(c1ccccc1)c1ccccc1 (stereo not given) | inactive: -7.59% [at 46.1 µM]
Cc1ccccc1C(=O)NCC1(N2CCCCC2)CCCCC1 | inactive: -5.52%
CC(C)N1C(=O)CC2(CCN(CCOC(=O)C(O)(c3ccccc3)c3ccccc3)CC2)C1=O | inactive: -1.12%
COc1cc(SC)ccc1C(=O)NCC1(N(C)C)CCCCC1 | inactive: 4.05%
CCN(CC)CC(C)C(C)OC(=O)C(O)(c1ccccc1)c1ccccc1 (stereo not given) | inactive: -2.57%
Cc1ccc(C(=O)NCC2(N3CCCCC3)CCCCC2)cc1 | inactive: -3.58%
O=C(NCC1(N2CCCCC2)CCCCC1)c1cc([N+](=O)[O-])ccc1Cl | inactive: 6.77%
CN1[C@@H]2CC[C@H]1CC(OC(=O)C(O)(c1ccccc1)c1ccccc1)C2 (stereo not given in full) | inactive: -0.41%
